Source: PMC3016232 (Cancer Chemotherapy and Pharmacology, 2010)

Settings: human, in vivo

CCc1c2c(nc3ccc(O[C@@H]4O[C@H](C(=O)O)[C@@H](O)[C@H](O)[C@H]4O)cc13)-c1cc3c(c(=O)n1C2)COC(=O)[C@]3(O)CC [SN-38G]
increase of mean SN-38G AUC with methimazole compared to without: 67%
